## Ab-91 heavy chain CDR variants: yeast mating affinities

The target is the same throughout: PDVDLGDISGINAS, from the HR2 region of SARS-CoV-2 spike.

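The starting antibody came from a phage panning campaign against this peptide. Variants in AAYL51 differ from the parent at up to three CDR positions; double and triple changes were sampled at random. Affinity was read by AlphaSeq, a pooled yeast mating assay with surface-displayed partners. After mating in shaken culture at 30 °C for 16 h, diploids were selected and their barcode pairs sequenced. Scores were corrected for input abundance and mapped to Kd with protein pairs of known affinity run in the same pool. Mating was done three times.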

Parent scFv Ab-91: VL joined to VH by the linker GGGGSGGGGSGGGGS. Changes lie in the heavy chain CDRs alone.
VL: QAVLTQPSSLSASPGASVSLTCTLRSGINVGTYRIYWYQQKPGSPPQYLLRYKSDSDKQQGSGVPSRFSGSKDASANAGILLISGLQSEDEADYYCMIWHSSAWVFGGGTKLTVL
VH: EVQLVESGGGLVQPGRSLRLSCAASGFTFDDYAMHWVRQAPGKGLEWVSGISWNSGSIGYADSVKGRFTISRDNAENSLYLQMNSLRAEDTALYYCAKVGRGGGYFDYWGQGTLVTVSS

The parent's heavy chain CDRs are GFTFDDYAMH, GISWNSGSIGYADSVK, VGRGGGYFDY; each variant's own CDRs replace them letter for letter. The read-out is the apparent dissociation constant on a log10 scale (nM): the lower, the stronger. The mean shown is taken over the replicates in which the pair was detected. An entry "n.d." has no value in the source: the pair was not observed among the diploids in that replicate. This suggests poor binding but is not conclusive. In this assay the parent's reference entry averaged 1.86; its copy inside this library read 0.88. Background: pairings of library AAYL51 with three empty control strains gave a value in 21% of cases (median 4.54, 5th percentile 3.26). Values in that range, when seen in few replicates, are hard to tell from nonspecific mating. Also given: how often the same scFv was detected with the empty control strains, with their mean in brackets.

CDR-H1	CDR-H2	CDR-H3	log10 Kd (nM) by replicate	mean log10 Kd (nM)	control signals
GFTFDDYAMH	GISWNSGSIGFADSVK	VGRLGGYQDY	4.42 / n.d. / n.d.	4.42	2 of 9 (4.12)
GFTFDDYAMH	GISWNSGSIGMADSVK	VGRGGGYFVQ	4.04 / n.d. / n.d.	4.04	5 of 9 (5.00)
GFTFGDYAMH	GIGWNSGLIGYADSVK	VGRGGGYFDY	0.53 / 0.69 / -0.03	0.40	2 of 9 (4.92)
GFTFDDYAMH	GIGWNSGSILYADSVK	VGRGGGYFDY	n.d. / n.d. / n.d.	n.d.	6 of 9 (3.54)
GFRFDDYAMH	GISWNHGSIGYADSVK	VGRGHGYFDY	n.d. / n.d. / n.d.	n.d.	1 of 9 (3.93)
GFTFDDYAEH	GISWNSGSIGYADSVL	VTRGGGYFDY	n.d. / n.d. / n.d.	n.d.	0 of 9
GFTFDDYAMH	SIWWNPGSIGYADSVK	VGRGGGYFDY	n.d. / n.d. / n.d.	n.d.	0 of 9
VFTFDDYAMH	GISWNSGSIGYADSVK	VSRGGGSFDY	n.d. / n.d. / n.d.	n.d.	0 of 9
GFNFDDYAMH	GISWNSGSIGYADSVK	LGRGGGYIDY	n.d. / n.d. / n.d.	n.d.	0 of 9
GFTFDDYAMH	FISQNSGSIGYCDSVK	VGRGGGYFDY	5.29 / 3.89 / 5.00	4.73	6 of 9 (5.25)
GFTFDDYAMH	GISWNSGDIGYHDSVK	VGRGGGYFDY	0.87 / 0.88 / 0.39	0.71	2 of 9 (5.32)
GDVFDDYAMH	GISWNSGSIGSADSVK	VGRGGGYFDY	n.d. / 5.44 / 5.29	5.36	1 of 9 (6.19)
GFLFDDYAMH	GISWNSGSNGYADSVK	VGRGGGYLDY	4.06 / n.d. / 4.52	4.29	1 of 9 (6.03)
HFTFDDYAMH	GISWNSGPIGYADSVK	VGRIGGYFDY	4.40 / 5.06 / 5.88	5.11	7 of 9 (4.61)
GFKIDDYAMR	GISWNSGSIGYADSVK	VGRGGGYFDY	n.d. / n.d. / n.d.	n.d.	0 of 9
GFTFDDYAMH	HISWNSGSIGYADSVC	VGRCGGYFDY	n.d. / n.d. / n.d.	n.d.	3 of 9 (4.88)
GFTFDDYAMH	GISENSGSIGWADSVK	VGRGGDYFDY	4.39 / n.d. / n.d.	4.39	3 of 9 (4.81)
GFTFLDYAMH	GGSWNSGSKGYADSVK	VGRGGGYFDY	n.d. / n.d. / n.d.	n.d.	1 of 9 (3.50)
GFTFDHYAMH	QIAWNSGSIGYADSVK	VGRGGGYFDY	4.24 / n.d. / n.d.	4.24	6 of 9 (4.49)
GFTFDDYAMH	GIFFNSGSIGYKDSVK	VGRGGGYFDY	n.d. / n.d. / n.d.	n.d.	1 of 9 (3.76)
GFTFWDYQMH	GISWNSGSIGYADLVK	VGRGGGYFDY	n.d. / n.d. / n.d.	n.d.	0 of 9
GFTFDDYAMH	GISWNSGSIGYCYSVK	CGRGGGYFDY	n.d. / n.d. / n.d.	n.d.	0 of 9
GFIFDDYAMH	GISCNSGSIGYADSVK	VGRGPGYFDY	4.99 / n.d. / 4.20	4.60	4 of 9 (4.81)
LFTFDDSAMH	GISWNSGSIGYADSVK	VGRGGGYFDY	5.71 / 3.99 / 4.59	4.76	1 of 9 (4.41)
GFTFDDYARH	GISWNSGSIGPADSVK	VGEGGGYFDY	4.97 / n.d. / n.d.	4.97	3 of 9 (5.32)
GWTFGDYAMH	VISWNSGSIGYADSVK	VGRGGGYFDY	n.d. / n.d. / n.d.	n.d.	1 of 9 (4.50)
WATFDDYAMH	GISWNQGSIGYADSVK	VGRGGGYFDY	n.d. / n.d. / n.d.	n.d.	1 of 9 (1.98)
GFTFDQYTMH	GISWNMGSIGYADSVK	VGRGGGYFDY	n.d. / n.d. / n.d.	n.d.	0 of 9
NFTFDDYAMH	GNSWLSGSIGYADSVK	VGRGGGYFDY	5.98 / 4.95 / n.d.	5.47	4 of 9 (4.65)
GFTFDDYKMH	GISWNSGSIGYADSVK	VGAGGGYFDG	5.51 / n.d. / n.d.	5.51	2 of 9 (3.35)
GFTFDDYAMH	GISWNSGSIGMADSVK	VGRYGGYFDY	3.09 / 3.07 / 3.32	3.16	4 of 9 (4.49)
GFTFDDYAMH	PISWNSGSIGIADSVK	VTRGGGYFDY	n.d. / n.d. / n.d.	n.d.	2 of 9 (3.67)
GFTLDDYAMH	GISWISGSIGYADSVK	VGRYGGYFDY	n.d. / n.d. / n.d.	n.d.	0 of 9
GFTFDDYAMH	GIHWNSGSIGYPDSVK	VGRGGGYWDY	5.15 / 5.56 / 5.79	5.50	5 of 9 (4.84)
GFTFDDYAMH	GWSWNSGSIGYADSVK	VGRGGGMFDS	n.d. / n.d. / 5.08	5.08	1 of 9 (4.18)
GFTFDDYAMH	GISWNSMSIGYADSVK	VGRGGGMFDY	4.70 / 5.59 / 4.97	5.09	5 of 9 (4.84)
GFTFDCYAMH	GISWNSGSEGYADSVK	VGRGGGYFDY	1.34 / 1.35 / 0.51	1.07	1 of 9 (5.60)
GFTFDDYAMH	GISWNSGSIGYADSVP	VGRGGGEFDC	n.d. / n.d. / n.d.	n.d.	1 of 9 (4.18)
GFTFDDQAMV	GISWNSGSIGYADSVK	VGRGGGYFDY	n.d. / n.d. / n.d.	n.d.	2 of 9 (4.13)
GFTFDDYAMH	GISWNSGSIGAADSVK	VGRGGGYFYY	3.33 / 3.39 / 3.06	3.26	4 of 9 (4.97)
GFPNDDYAMH	GISWNSGSIGYADSVK	VGRLGGYFDY	n.d. / n.d. / n.d.	n.d.	0 of 9
GFTFDDDAMH	IISWNSGSIGYMDSVK	VGRGGGYFDY	4.42 / n.d. / 5.15	4.78	1 of 9 (4.53)
GFTFPDYAMQ	GISWNSGSIGPADSVK	VGRGGGYFDY	n.d. / n.d. / n.d.	n.d.	0 of 9
GFTFDDYAMH	FWSWNSGSIGYADSVN	VGRGGGYFDY	n.d. / 3.96 / n.d.	3.96	3 of 9 (4.18)
GFTFDDYACH	DISWNSGSIGYADSVK	VGRGGGVFDY	n.d. / n.d. / n.d.	n.d.	1 of 9 (5.29)
GFTFDDYAMH	GISWNSGSKGYADSVK	VGRGMGYMDY	4.26 / n.d. / n.d.	4.26	5 of 9 (5.07)
GFTFDDYAMH	GISWNSGSIGYADSVW	VGRGGGIFDY	4.64 / 2.94 / n.d.	3.79	0 of 9
YFTFDDYAKH	GISWQSGSIGYADSVK	VGRGGGYFDY	5.33 / 6.77 / 4.93	5.68	2 of 9 (4.79)

The first 3 variants above that were never detected:

{"CDR-H1": "GFTFDDYAMH", "CDR-H2": "GIGWNSGSILYADSVK", "CDR-H3": "VGRGGGYFDY", "log10 Kd (nM) by replicate": "n.d. / n.d. / n.d.", "mean log10 Kd (nM)": "n.d.", "control signals": "6 of 9 (3.54)"}
{"CDR-H1": "GFRFDDYAMH", "CDR-H2": "GISWNHGSIGYADSVK", "CDR-H3": "VGRGHGYFDY", "log10 Kd (nM) by replicate": "n.d. / n.d. / n.d.", "mean log10 Kd (nM)": "n.d.", "control signals": "1 of 9 (3.93)"}
{"CDR-H1": "GFTFDDYAEH", "CDR-H2": "GISWNSGSIGYADSVL", "CDR-H3": "VTRGGGYFDY", "log10 Kd (nM) by replicate": "n.d. / n.d. / n.d.", "mean log10 Kd (nM)": "n.d.", "control signals": "0 of 9"}

Reference: Engelhart et al. 2022, doi:10.1038/s41597-022-01779-4. File: FLAb, binding data.